Experimental data: publication PMC8709454, “Enhanced Skin Delivery of Therapeutic Peptides Using Spicule-Based Topical Delivery Systems” (Pharmaceutics, 2021)
Where two headings read alike, the source gives them in different places.

Details: FITC-INS 0.1 mg/mL, mean ± SD; for deposition of FITC-INS in deep skin layers (dermis and receptor): 200 μL, occlusive; for transdermal flux of FITC-INS: porcine skin, PBS pH 7.4, 37 °C

Substance: Fluorescein isothiocyanate insulin [FITC-INS]
- deposition of FITC-INS in deep skin layers (dermis and receptor) (Dermaroller 200 μm (DR) treatment 2 min, Franz cell, receptor PBS pH 7.4, 37 °C, fluorescence): 3.4 ± 0.7%
- transdermal flux of FITC-INS (Dermaroller (DR) treatment, Franz cell, fluorescence): 28.1 ± 5.8 ng/cm^2/h
- deposition of FITC-INS in deep skin layers (dermis and receptor) (SC peeling treatment (tape-stripped 30 times), Franz cell, receptor PBS pH 7.4, 37 °C, fluorescence): 63.2 ± 1.1%
- deposition of FITC-INS in deep skin layers (dermis and receptor) (SHS treatment (massaged 2 min), Franz cell, receptor PBS pH 7.4, 37 °C, fluorescence): 54.8 ± 3.9%
- transdermal flux of FITC-INS (SHS treatment, Franz cell, fluorescence): 457.0 ± 32.3 ng/cm^2/h
- deposition of FITC-INS in deep skin layers (dermis and receptor) (passive penetration, Franz cell 1.77 cm^2, receptor PBS pH 7.4 0.2 M, 37 °C, 600 rpm, fluorescence 495/525 nm): 0.6 ± 0.3%
- transdermal flux of FITC-INS (passive penetration, Franz cell, fluorescence): 5.0 ± 2.2 ng/cm^2/h
